The chains behind the UniProt entries cited, without tags or fusion partners.
Guanine nucleotide-binding protein G(i) subunit alpha-3 (Rattus norvegicus), P08753, UniProt P08753, whole entry, looked up: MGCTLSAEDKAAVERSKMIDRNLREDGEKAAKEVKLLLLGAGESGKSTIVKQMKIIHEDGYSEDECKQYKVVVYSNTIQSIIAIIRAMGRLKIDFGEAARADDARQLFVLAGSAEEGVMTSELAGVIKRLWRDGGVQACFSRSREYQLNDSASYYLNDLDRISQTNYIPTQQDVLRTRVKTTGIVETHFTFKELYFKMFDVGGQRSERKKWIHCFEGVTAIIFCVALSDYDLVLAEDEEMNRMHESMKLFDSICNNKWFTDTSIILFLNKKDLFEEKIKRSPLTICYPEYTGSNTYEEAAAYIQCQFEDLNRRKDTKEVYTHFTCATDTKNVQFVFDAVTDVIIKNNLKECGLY

# The entries come from a sample that favours hits as a whole.
# GIV Gai3 FP: inhibitors of GIV peptide binding to Galpha-i3, primary screen, biochemical, fluorescence polarization, FITC-GIV GBA peptide, rat Galphai3 | Guanine nucleotide-binding protein G(i) subunit alpha-3 (Rattus norvegicus), P08753 | 90 min; hits give low values; scaled: aluminum fluoride 0%, vehicle 100% | percent of control (FP), % (test concentration not listed) | hit rate 0.42% among 210,000 | AID 1224905, 2016;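 active = replicate mean at 85% of control or lower, very high polarization wells dropped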;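 note: wells of about 15 µL received 100 nL stock; the first replicate is given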
# HCMV UL50-53 inh: inhibitors of HCMV UL50-UL53 nuclear egress complex interaction | inhibition, % (concentration not given with the values) | actives 0.15% (n = 190,000) | HTRF UL50-UL53 interaction, normalized percent inhibition; in the data active = inhibition above about 27%, passing the limit was not always enough
# GIV-Gai FP conf: confirmation of inhibitors of GIV binding to rat Galpha-i3; shares compounds with GIV Gai3 FP; FITC-GIV peptide binding to Galphai3, fluorescence polarization; stronger effect = lower value; fluorescence polarization, mP at 100 µM; actives 38% (n = 580); AID 1259350;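 active = inhibition score of 15 or more, meaning 100 minus mean polarization as percent of control over three replicates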
# GIV Gai AS conf: GIV-Galpha-i3 inhibition, AlphaScreen confirmation; AlphaScreen counts at 100 µM; AlphaScreen Galphai3-GIV binding, purified proteins, 90 min; stronger effect = lower value; shares compounds with GIV Gai3 FP; actives 39% (n = 580);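 active = inhibition score at or above a set limit, where the score is 100 minus the three-replicate mean percent of control signal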
# * marks the source's active call; other numbers are inactive results; . = not tested or not shown.
# Field names – A = GIV Gai3 FP; B = HCMV UL50-53 inh; C = GIV-Gai FP conf; D = GIV Gai AS conf
> Cc1nc(N2CCN(c3ccccn3)CC2)c2c(C)c(C(=O)N3CCOCC3)sc2n1
  A: 113	B: 11	C: .	D: .

> CCCN1CC=C2C(C#N)=C(N)C(C#N)(C#N)C(c3ccc(OC)cc3)C2C1 (configuration not stated)
  A: 111	B: .	C: .	D: .

> CCCN1CC=C2C(C#N)=C(N)C(C#N)(C#N)C(c3ccc(OCC(N)=O)cc3)C2C1 (configuration not stated)
  A: 85*	B: -19	C: 71	D: 23647

> CCN(CC)S(=O)(=O)c1ccc(C(=O)Nc2nc3ccc4nc(SC)sc4c3s2)cc1
  A: 97	B: -29	C: .	D: .

> CCOC(=O)c1sc2nc(CC(=O)OC)nc(N3CCN(c4ccc([N+](=O)[O-])cc4)CC3)c2c1C
  A: 105	B: 3	C: .	D: .

> N#CC(C(=O)NCCc1ccccc1)c1nc2ccccc2nc1N1CCOCC1 (configuration not stated)
  A: 86	B: -10	C: 76	D: 31052

> N#CC(C(=O)NCc1ccccc1)c1nc2ccccc2nc1N1CCCC1 (configuration not stated)
  A: .	B: -17	C: .	D: .

> Oc1ccc2ccccc2c1C=NCc1cn2ccsc2n1
  A: .	B: 20	C: .	D: .

> Oc1ccc2ccccc2c1C=NCc1cccnc1
  A: 5.4*	B: -8	C: 24*	D: 5898*

> Cc1ccc(-c2c(C(=O)NCCc3cccc(C)c3)oc(=O)c3ccccc23)cc1
  A: 101	B: .	C: .	D: .

> N[C@@H](CC(=O)Nc1ccc(Oc2cc(F)c(F)cc2Br)cc1)C(=O)O
  A: .	B: 9	C: .	D: .

> Cc1nc(CCNC(=O)[C@H]2CSCN2S(=O)(=O)c2ccc3c(c2)CCCC3)cs1
  A: 101	B: .	C: .	D: .

> CCOc1ccc(-c2nonc2NC(=O)C(C)Oc2ccc(F)cc2)cc1C (configuration not stated)
  A: 84*	B: -16	C: 66	D: 40925

> CCOc1ccc(-c2nonc2NC(=O)C(C)Oc2ccc(CC)cc2)cc1C (configuration not stated)
  A: 105	B: 0	C: .	D: .

> COc1ccc(C2OCC(CO)(CO)CO2)cc1
  A: 101	B: .	C: .	D: .

> O=C(COc1ccccc1)N1N=C2CCCCCC2C1(O)C(F)(F)F (configuration not stated)
  A: 108	B: .	C: .	D: .

> COC(=O)c1[nH]c2sc3c(c2c1N)CCCC3
  A: 20*	B: -2	C: 39*	D: 8300*

> COC(=O)c1c(N)sc2c1CCCC2
  A: 107	B: -8	C: .	D: .

> CCOC(=O)c1c(N)sc(C)c1C
  A: .	B: -13	C: .	D: .

> CCOC(=O)c1[nH]c2sc(C)c(C)c2c1N
  A: 83*	B: -14	C: 73	D: 8984*

> CCC(=O)Nc1cccc(-c2noc(C3CCCN(C(=O)c4ccc(NC(C)=O)cc4)C3)n2)c1 (configuration not stated)
  A: 109	B: .	C: .	D: .

> CC1=NN(c2cccc(Br)c2)C(=O)/C1=C\c1ccc(-c2cccc([N+](=O)[O-])c2)o1
  A: 100	B: -19	C: .	D: .

> O=C1OC(c2ccccc2)OC(=O)C1=Cc1ccc(-c2cccc(Br)c2)o1 (configuration not stated)
  A: 64*	B: .	C: 63	D: 17821*

> O=C1CN(C(=O)CSc2ncc(C(F)(F)F)cc2Cl)c2ccccc2N1
  A: .	B: -2	C: .	D: .

> O=C1CN(C(=O)CSCc2c(F)cccc2Cl)c2ccccc2N1
  A: 90	B: -22	C: 73	D: 45374

> O=c1[nH]c2c(s1)C1c3ccccc3OC3CCCC(S2)C31 (configuration not stated)
  A: 72*	B: -142	C: 40*	D: 30587

> O=C1Oc2ccccc2C2c3sc(=O)[nH]c3SC(c3ccccc3)C12 (configuration not stated)
  A: 112	B: 7	C: .	D: .

> CCOC(=O)c1ccc(-n2c(C)cc(C=C3C(=O)NC(=S)NC3=O)c2C)cc1
  A: 78*	B: .	C: 64	D: 10801*

> CCOC(=O)c1ccc(-n2c(C)cc(C=C3C(=O)N(C)C(=S)N(C)C3=O)c2C)cc1
  A: 113	B: -5	C: .	D: .

> O=C(c1cc2cc(Br)ccc2oc1=O)N1CCN(c2ccccc2F)CC1
  A: 108	B: 17	C: .	D: .

> CCc1nc(-c2ccc(-c3noc(C4CCC4)n3)cc2)cs1
  A: 103	B: .	C: .	D: .

> O=C(O)c1ccccc1C(=O)c1ccccc1
  A: .	B: 2	C: .	D: .

> O=C(c1ccccc1)c1cccc2c1NCC2
  A: 81*	B: -11	C: 65	D: 29262

> CC(C)C(C(=O)O)N1C(=O)/C(=C/c2ccccc2)SC1=S (configuration not stated)
  A: .	B: -72	C: .	D: .

> O=C(O)C(c1ccccc1)N1C(=O)/C(=C/c2ccncc2)SC1=S (configuration not stated)
  A: 80*	B: .	C: 76	D: 50305

> CCOc1cccc2c1N(C(C)=O)C(C)(C)C1=C2C2(SC(C(=O)OC)=C(C(=O)OC)S2)C(C(=O)OC)=C(C(=O)OC)S1
  A: 112	B: .	C: .	D: .

> COc1ccccc1-c1nn2c(-c3cc(C(C)C)[nH]n3)nnc2s1
  A: 102	B: 0	C: .	D: .

> CC(C)c1cc(-c2nnc3sc(-c4ccncc4)nn23)n[nH]1
  A: 85*	B: -23	C: 63	D: 12549*

# Part of the list above, showing only GIV-Gai FP conf and HCMV UL50-53 inh.
smiles | GIV-Gai FP conf | HCMV UL50-53 inh
N[C@@H](CC(=O)Nc1ccc(Oc2cc(F)c(F)cc2Br)cc1)C(=O)O | . | 9
CC(C)C(C(=O)O)N1C(=O)/C(=C/c2ccccc2)SC1=S (configuration not stated) | . | -72
N#CC(C(=O)NCc1ccccc1)c1nc2ccccc2nc1N1CCCC1 (configuration not stated) | . | -17

# Screening results as filed in PubChem.
